# Experimental data taken from article PMC9936496, “Azobenzene-Based Amino Acids for the Photocontrol of Coiled-Coil Peptides” (Bioconjugate Chemistry, 2023).
# Details: amino acid incorporated at position 9 of peptide K3; from 340 nm PSS; absorbance at 335 nm; PBS, [peptide] = 50 μM
row,Structure (SMILES),absorption maximum observed in the dark state regained after 435 nm light
1,"N[C@@H](Cc1ccc(N=Nc2ccccc2)cc1)C(=O)O [APhe1, Phenylazo-phenylalanine]",92%
2,N[C@@H](Cc1ccc(N=Nc2ccc(C(=O)O)cc2)cc1)C(=O)O [APhe2],98%
